Assay results reported in PubChem BioAssay AID1947 (The Scripps Research Institute Molecular Screening Center, 2009).
Only a part is listed here, and it is no random draw. Some salts and complexes are drawn in separate pieces, as the source files them; their charges need not balance. Calls of active or inactive are those of the source.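 The calls were made as follows: active = inhibition above the screen mean inhibition plus 3 SD, computed separately per campaign (cut at about 18% in these data); inactive = the rest.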

test system: Fam108B (ABHD17B) serine hydrolase [Mus musculus]; assay: inhibition of Fam108B (ABHD17B) hydrolase – biochemical, fluorescence polarization, counter-screen for RBBP9 inhibitor project, primary screen (AID 1947); settings: recombinant Fam108B, FP-Rh probe fluorescence polarization; at 9.51 µM; hits give high values;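 also: inhibitors lower polarization as less probe binds the enzyme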

SMILES | inhibition
CC(C)(C)c1ccc(OP(C)(=O)O)cc1 | inactive: 5.93%
CP(=O)(Nc1ccc(Cl)cc1)Oc1ccc(F)cc1 (stereo unspecified) | inactive: -2.49%
CN(C)C(=O)c1c([N+](=O)[O-])cc([N+](=O)[O-])cc1[N+](=O)[O-] | inactive: 2.51%
COc1ccc(OP(C)(=O)Nc2ccc(Br)cc2)cc1 (stereo unspecified) | inactive: 0.82%
CCN(CC)CC(O)COC(=O)C(O)(c1ccccc1)C1CCCCC1 (stereo unspecified) | inactive: -4.3%
O=C(OCCCN1CCCC1)C(O)(c1ccccc1)C1CCCCC1 (stereo unspecified) | inactive: 0.44%
COc1ccccc1OP(C)(=O)Nc1c(C)n(C)n(-c2ccccc2)c1=O (stereo unspecified) | inactive: 2.5%
CCc1ccc(OP(C)(=O)Nc2cccnc2)cc1 (stereo unspecified) | inactive: 3.22%
CP(=O)(Oc1ccccc1)N1CCOC1=O (stereo unspecified) | inactive: -8.52%
Nc1ccc2c(ccc3cccnc32)n1.O=[N+]([O-])c1cc([N+](=O)[O-])c(O)c([N+](=O)[O-])c1 | inactive: -1.76%
CCOC(=O)c1ccc(NP(C)(=O)Oc2ccc(Cl)cc2)cc1 (stereo unspecified) | inactive: -2.26%
CP(=O)(OC12CC3CC(CC(C3)C1)C2)OC12CC3CC(CC(C3)C1)C2 | inactive: 0.37%
O=[N+]([O-])c1cc([N+](=O)[O-])c(NCC2CCS(=O)(=O)C2)c([N+](=O)[O-])c1 (stereo unspecified) | inactive: 3.79%
COc1ccc(OP(C)(=O)Nc2cccc(Br)c2)cc1 (stereo unspecified) | inactive: 2.46%
CN(C)CCOC(=O)C(O)(c1ccccc1)C1CCCCC1 (stereo unspecified) | inactive: -0.97%
COc1ccc(NP(C)(=O)Oc2ccccc2OC)cc1 (stereo unspecified) | inactive: -3.69%

SMILES | inhibition
CP(=O)(Nc1ccc2c(c1)OCCO2)Oc1ccccc1 (stereo unspecified) | inactive: 2.67%
Cc1ccccc1NP(C)(=O)Nc1ccccc1C | inactive: -3.18%
CP(=O)(Nc1ccc(SC(F)(F)F)cc1)Oc1ccc(F)cc1 (stereo unspecified) | inactive: -5.5%
CCOP(C)(=S)SCC(=O)NC(C)(CC)C(=O)O (stereo unspecified) | inactive: 4.97%
O=C(OC1CN2CCC1CC2)c1ccc([N+](=O)[O-])cc1 (stereo unspecified) | inactive: 1.52%
O=C(OCCN1CCN(CCOCc2ccccc2)CC1)C(O)(c1ccccc1)c1ccccc1 | inactive: -9.11%
COc1ccc2c(c1O)-c1c(O)c(OC)cc3c1[C@H](C2)[N+](C)(C)CC3.O=[N+]([O-])c1cc([N+](=O)[O-])c([O-])c([N+](=O)[O-])c1[O-] | inactive: 2.69%
CP(=O)(Nc1ccccc1F)Oc1ccccc1 (stereo unspecified) | inactive: -2.52%
CC(C)c1ccc(OP(C)(=O)Nc2ccc(SC(F)(F)F)cc2)cc1 (stereo unspecified) | inactive: 0.75%
CCN(CC)CCCOC(=O)C(O)(c1ccccc1)C1CCCCC1 (stereo unspecified) | inactive: 7.53%
CP(=O)(Nc1ccccc1)Oc1ccc(F)cc1 (stereo unspecified) | inactive: 3.78%
CCCCCOc1ccc(NP(C)(=O)Oc2ccc(Cl)cc2Cl)cc1 (stereo unspecified) | inactive: -3.12%
O=[N+]([O-])c1cc([N+](=O)[O-])c(OC2CCCCC2O)c([N+](=O)[O-])c1 (stereo unspecified) | inactive: -1.01%
CCOC(=O)c1ccc(NP(C)(=O)Oc2ccc(F)cc2)cc1 (stereo unspecified) | inactive: 2.88%
COc1ccc(OP(C)(=O)Nc2ccc(SC(F)(F)F)cc2)cc1 (stereo unspecified) | inactive: 2.34%
